Apparent affinities of Ab-14 variants for a coronavirus HR2 peptide

Target: peptide PDVDLGDISGINAS, taken from heptad repeat 2 (HR2) of SARS-CoV-2 spike.

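AAYL49 was designed without a model: most single CDR substitutions and a random sample of double and triple ones. AlphaSeq pools MATa yeast showing the antibodies with MATalpha yeast showing the peptide. The frequency of each diploid, read from paired DNA barcodes, reflects how well the two displayed proteins bind. A regression on co-assayed BCL2-family reference pairs converts the normalised counts of each replicate to an apparent Kd. There are three technical replicates.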

Parent: Ab-14, a human scFv built as VH, the linker GGGGSGGGGSGGGGS, VL. Only the CDRs of the heavy chain vary.
VH: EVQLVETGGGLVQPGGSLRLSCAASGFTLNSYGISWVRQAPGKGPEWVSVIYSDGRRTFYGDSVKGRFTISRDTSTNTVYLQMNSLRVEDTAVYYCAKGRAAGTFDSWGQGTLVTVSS
VL: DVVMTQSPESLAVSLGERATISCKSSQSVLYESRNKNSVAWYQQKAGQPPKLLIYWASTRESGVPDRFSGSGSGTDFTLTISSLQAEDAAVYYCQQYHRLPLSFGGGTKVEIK

Positions count from residue 1 of the parent VH; F27W puts W in place of F. Affinities are written as log10 Kd with Kd in nM; a lower number is a better binder. A mean of the replicates is given; it leaves out those without a signal. "nd" marks a missing value. The strain was present, yet no cells mated with the target were sequenced in any replicate, which points to weak or no binding. Background: pairings of library AAYL49 with three empty control strains gave a value in 15% of cases (median 4.06, 5th percentile 2.83). Values in that range, when seen in few replicates, are hard to tell from nonspecific mating.

{"changes": "F27W/G99S/R100D", "mean log10 Kd (nM)": "2.95", "replicates with signal": "3/3"}
{"changes": "S35N/T58L/F59L", "mean log10 Kd (nM)": "nd", "replicates with signal": "0/3"}
{"changes": "G55C/G99N/A101D", "mean log10 Kd (nM)": "nd", "replicates with signal": "0/3"}
{"changes": "F27K/Y52R/F59P", "mean log10 Kd (nM)": "nd", "replicates with signal": "0/3"}
{"changes": "G33R/S53M", "mean log10 Kd (nM)": "nd", "replicates with signal": "0/3"}
{"changes": "G33H/I51W/S107D", "mean log10 Kd (nM)": "5.34", "replicates with signal": "2/3"}
{"changes": "S35V/T58V/A102H", "mean log10 Kd (nM)": "2.04", "replicates with signal": "1/3"}
{"changes": "Y32Q/A101M", "mean log10 Kd (nM)": "1.65", "replicates with signal": "3/3"}
{"changes": "L29Y/S35D", "mean log10 Kd (nM)": "nd", "replicates with signal": "0/3"}
{"changes": "F27R/D62Y/A101R", "mean log10 Kd (nM)": "4.05", "replicates with signal": "1/3"}
{"changes": "V64T/G99T/G103W", "mean log10 Kd (nM)": "3.46", "replicates with signal": "3/3"}
{"changes": "N30L/D54E", "mean log10 Kd (nM)": "nd", "replicates with signal": "0/3"}
{"changes": "G103R/F105D/S107M", "mean log10 Kd (nM)": "nd", "replicates with signal": "0/3"}
{"changes": "L29W/S31Q", "mean log10 Kd (nM)": "3.31", "replicates with signal": "1/3"}
{"changes": "N30Q/Y52S", "mean log10 Kd (nM)": "nd", "replicates with signal": "0/3"}
{"changes": "F27H/T28H/D62K", "mean log10 Kd (nM)": "nd", "replicates with signal": "0/3"}
{"changes": "S31W/G33L/I34F", "mean log10 Kd (nM)": "5.11", "replicates with signal": "3/3"}
{"changes": "N30C/S35K/D106G", "mean log10 Kd (nM)": "4.44", "replicates with signal": "1/3"}
{"changes": "G26C/G33V/V50S", "mean log10 Kd (nM)": "nd", "replicates with signal": "0/3"}

The last 3 entries again:

{"changes": "S31W/G33L/I34F", "mean log10 Kd (nM)": "5.11", "replicates with signal": "3/3"}
{"changes": "N30C/S35K/D106G", "mean log10 Kd (nM)": "4.44", "replicates with signal": "1/3"}
{"changes": "G26C/G33V/V50S", "mean log10 Kd (nM)": "nd", "replicates with signal": "0/3"}

Source: Engelhart et al. 2022 (doi:10.1038/s41597-022-01779-4), MIT Lincoln Laboratory and A-Alpha Bio; data file from the FLAb repository.